Literature values, collected in patent publication US20230312752A1 (Brown University, priority 2021, published 2023).

Amino acid sequences for entries named in this document (tags omitted). A change or cut given only in a name is not applied to a line headed by its entry.
UniProt P11802, whole entry, species assumed: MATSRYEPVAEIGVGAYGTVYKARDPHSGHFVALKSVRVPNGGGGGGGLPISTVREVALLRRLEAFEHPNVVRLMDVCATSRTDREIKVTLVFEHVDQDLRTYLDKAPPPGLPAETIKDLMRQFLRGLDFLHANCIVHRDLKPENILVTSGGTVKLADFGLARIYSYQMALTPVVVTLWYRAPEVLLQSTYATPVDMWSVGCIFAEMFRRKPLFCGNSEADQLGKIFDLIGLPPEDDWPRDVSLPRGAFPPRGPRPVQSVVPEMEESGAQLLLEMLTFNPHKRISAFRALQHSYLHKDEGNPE
UniProt P50613: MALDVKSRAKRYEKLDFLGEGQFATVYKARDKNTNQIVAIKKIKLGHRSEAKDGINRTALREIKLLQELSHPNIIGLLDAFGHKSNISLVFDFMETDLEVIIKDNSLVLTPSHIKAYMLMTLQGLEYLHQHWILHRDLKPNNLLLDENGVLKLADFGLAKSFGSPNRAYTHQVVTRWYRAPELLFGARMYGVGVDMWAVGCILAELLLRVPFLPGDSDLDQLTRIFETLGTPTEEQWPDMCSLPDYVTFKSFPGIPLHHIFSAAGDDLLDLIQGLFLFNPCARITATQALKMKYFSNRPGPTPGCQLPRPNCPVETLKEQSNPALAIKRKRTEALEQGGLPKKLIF

Tests used:
CDK4 = CDK4 (Homo sapiens, UniProt P11802); set-up: key to the marks not given beside the values; conditions: cited from earlier work
CDK7 = CDK7 (Homo sapiens, UniProt P50613); set-up: key: + is used to indicate the potency of the inhibitor; ++++ > +++ > ++ > +; + is used to indicate the potency of the inhibitor; ++++ > +++ > ++ > +; + is used to indicate the potency of the inhibitor; ++++ > +++ > ++ > +; + is used to indicate the potency of the inhibitor; ++++ > +++ > ++ > +; ◯ refers to compounds with inhibitory effects on the related isoform, but without specific value; conditions: cited from earlier work

Substance	Inhibitory potency CDK4 (CDK4)	Inhibitory potency CDK7 (CDK7)
Palbociclib Isethionate	++++	
BS-181 HCl		+++
